Measurements from ChEMBL document CHEMBL1914369, “Introduction of an electron withdrawing group on the hydroxyphenylnaphthol scaffold improves the potency of 17β-hydroxysteroid dehydrogenase type 2 (17β-HSD2) inhibitors” (J Med Chem, 2011).

Key:
Homo sapiens = species: Homo sapiens; assay: Selectivity ratio of IC50 for human placental cytosolic 17beta-HSD1 to IC50 for human placental microsomal 17beta-HSD2
In short: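 Cytosolic fraction from human placenta (ammonium sulfate precipitated) incubated with NADH 500 μM, test compound and [3H]E1 + E1 (500 nM final), 10 min; workup as for the type 2 assay (HgCl2 stop, ether extraction, HPLC, radiodetection). Mean of three determinations. For line 20, SF = IC50(17β-HSD1)/IC50(17β-HSD2).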

[1] = tested on: 17-beta-hydroxysteroid dehydrogenase type 2 (Callithrix jacchus); assay: Inhibition of monkey placental microsomal 17beta-HSD2 assessed as inhibition of E1 formation using [2,4,6,7-3H]E2 as substrate at 1 uM after 10 mins by HPLC analysis
[2] = tested on: 17-beta-hydroxysteroid dehydrogenase type 2 (Callithrix jacchus); assay: Inhibition of monkey placental microsomal 17beta-HSD2 assessed as inhibition of E1 formation using [2,4,6,7-3H]E2 as substrate at 100 nM after 10 mins by HPLC analysis
Callithrix jacchus = species: Callithrix jacchus; assay: Inhibition of monkey placental microsomal 17beta-HSD1 assessed as inhibition of E2 formation using [2,4,6,7-3H]E1 as substrate at 1 uM after 10 mins by HPLC analysis

Ratio IC50 (Homo sapiens): 32
inhibition [1]: 99%
inhibition [2]: 75%
inhibition (Callithrix jacchus): 75%
Structure (SMILES): Oc1ccc(-c2ccc3c(O)cccc3c2)cc1C(F)(F)F
